Test results: US12692247B2, “Phenyl- and pyridopyrazole derivatives as inhibitors of DDR1” (Redx Pharma Limited, priority 2021, dated 2026)

Protein sequences, listed by entry. Tags and fused reporters are not part of them. Residues count along the entry.
UniProt Q16832, 427-855 limits assumed: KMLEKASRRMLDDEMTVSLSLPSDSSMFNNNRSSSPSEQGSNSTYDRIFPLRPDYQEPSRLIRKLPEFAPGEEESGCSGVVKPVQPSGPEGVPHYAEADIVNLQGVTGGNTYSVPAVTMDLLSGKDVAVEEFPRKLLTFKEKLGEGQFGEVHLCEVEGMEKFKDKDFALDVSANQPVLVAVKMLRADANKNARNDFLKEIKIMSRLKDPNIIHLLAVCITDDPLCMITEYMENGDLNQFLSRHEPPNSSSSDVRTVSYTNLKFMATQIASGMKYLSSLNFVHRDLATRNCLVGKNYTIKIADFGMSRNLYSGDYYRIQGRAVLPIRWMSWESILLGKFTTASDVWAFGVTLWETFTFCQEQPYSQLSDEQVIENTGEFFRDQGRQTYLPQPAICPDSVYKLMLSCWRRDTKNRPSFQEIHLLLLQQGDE
UniProt Q08345, 440-876 isoform 2 limits assumed: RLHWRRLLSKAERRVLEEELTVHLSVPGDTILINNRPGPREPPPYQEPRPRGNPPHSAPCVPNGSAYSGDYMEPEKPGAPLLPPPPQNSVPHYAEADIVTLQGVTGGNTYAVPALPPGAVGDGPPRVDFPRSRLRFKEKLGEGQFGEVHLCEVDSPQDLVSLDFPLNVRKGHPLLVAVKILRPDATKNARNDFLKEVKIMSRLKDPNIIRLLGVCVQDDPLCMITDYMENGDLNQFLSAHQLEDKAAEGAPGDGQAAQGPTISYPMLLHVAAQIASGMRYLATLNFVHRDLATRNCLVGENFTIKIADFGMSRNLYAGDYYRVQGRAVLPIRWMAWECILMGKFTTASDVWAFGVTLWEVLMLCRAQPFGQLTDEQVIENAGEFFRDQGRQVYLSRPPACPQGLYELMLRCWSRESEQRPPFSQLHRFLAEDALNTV

What was measured:
Recombinant human DDR2 = Recombinant human DDR2 (Homo sapiens, UniProt Q16832); experiment: LanthaScreen Eu Kinase Binding Assay, DDR2; conditions: recombinant human DDR2 (1.75 nM; aa427-855, GST tag), Kinase Tracer 178 10 nM, time-resolved fluorescence, at least two independent replicates
Recombinant human DDR1 = Recombinant human DDR1 (Homo sapiens, UniProt Q08345); experiment: LanthaScreen Eu Kinase Binding Assay, DDR1; conditions: recombinant human DDR1 (2.5 nM; aa440-876, GST tag), Kinase Tracer 178 5 nM, time-resolved fluorescence, at least two independent replicates

| SMILES | DDR2 pIC50 (Recombinant human DDR2) | DDR1 pIC50 (Recombinant human DDR1) |
| --- | --- | --- |
| Cn1ncc2cc(Nc3cccc4ccn(CC(=O)N5CCCCC5C(C)(C)O)c(=O)c34)ccc21 (centres unmarked) | D (pIC50≤6) | D (pIC50≤6) |
| Cn1ncc2cc(Nc3cccc4ccn(CC(=O)Nc5ccc(C(C)(C)O)cc5)c(=O)c34)ccc21 | B (8≥pIC50>7) | B (8≥pIC50>7) |
| Cc1cc(Nc2cccc3ccn(CC(=O)NCC(F)(F)F)c(=O)c23)cc2cn[nH]c12 | C (7≥pIC50>6) | A (pIC50>8) |
| O=C(Cn1ccc2cccc(Nc3cnc4[nH]ncc4c3)c2c1=O)Nc1cncc(C(F)(F)F)c1 | B (8≥pIC50>7) | A (pIC50>8) |
